Laboratory results reported in paper PMC5500575 (Scientific Reports, 2017).
Where two headings read alike, the source gives them in different places.

The chains behind the UniProt entries cited, without tags or fusion partners.
UniProt Q9Y5N1, whole entry: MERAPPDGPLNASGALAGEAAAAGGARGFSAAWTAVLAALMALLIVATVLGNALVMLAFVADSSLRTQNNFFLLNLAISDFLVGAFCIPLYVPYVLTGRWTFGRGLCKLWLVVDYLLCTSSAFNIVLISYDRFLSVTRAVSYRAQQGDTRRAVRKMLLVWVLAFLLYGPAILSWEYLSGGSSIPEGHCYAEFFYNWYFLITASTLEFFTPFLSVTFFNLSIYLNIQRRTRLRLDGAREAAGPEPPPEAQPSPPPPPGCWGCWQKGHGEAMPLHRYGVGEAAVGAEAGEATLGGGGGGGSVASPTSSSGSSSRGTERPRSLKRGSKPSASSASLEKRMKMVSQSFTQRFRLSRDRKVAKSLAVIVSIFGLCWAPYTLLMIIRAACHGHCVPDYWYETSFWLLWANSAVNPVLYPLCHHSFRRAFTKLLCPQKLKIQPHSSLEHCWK

Columns and labels:
[1] = target: human histamine H3 receptor (Homo sapiens, UniProt Q9Y5N1); experiment: IP-One (HTRF IP1 accumulation) assay, H3 receptor co-expressed with chimeric Gqi5 in tsA201 cells; type: cell-based; conditions: for Result of second pharmacological assaying (analogues): 2 µM compound
human H3 receptor = human H3 receptor (Homo sapiens, UniProt Q9Y5N1); experiment: [3H]N-α-methylhistamine radioligand competition binding assay; conditions: for Ki / Affinity (pKi): 0.3 nM [3H]N-α-methylhistamine; for Ki: Cheng-Prusoff with Kd […]; for Affinity (pKi): ± SEM
[2] = antagonist mode, EC80 histamine
[3] = antagonist mode, in the presence of EC80 of histamine

Row | Structure (SMILES) | Inhibition relative to the basal level ([1]; antagonist mode) | Result of second pharmacological assaying (analogues) [1, 2] | IC50 [1, 3] [nM] | pIC50 ± SEM [1, 3] | pIC50 ± SEM, inverse agonism activity ([1]; inverse agonism, no histamine added) | IC50 ([1]; read-out: IC50, inverse agonism activity, inverse agonism, no histamine added) [nM] | Ki (human H3 receptor) [nM] | Affinity (pKi) (human H3 receptor) | Result of first pharmacological assaying (pharmacophore screening hits) ([1]; antagonist mode, 20 µM compound, EC80 histamine) | Inverse agonistic activity ([1]; no histamine added) | Competition with [3H]N-α-methylhistamine binding (in words) (human H3 receptor; 0.3 nM radioligand, NSB defined with 10 µM histamine)
1 | Cc1ccc2c(c1)c1c3n2CCN(CC(O)CNCCCN(C)C)C3CCC1 (centres unmarked) | inhibition below the basal level | new antagonists | 2700 | 5.6 ± 0.14 | 5.4 ± 0.068 | 4200 | 1590 | 5.80 ± 0.05 |  |  | 
2 | CCN1CCC(N2CCc3[nH]c4ccc(OC)cc4c3C2)CC1 |  | new antagonists | 5200 | 5.3 ± 0.37 |  |  | 1590 | 5.80 ± 0.14 |  |  | 
3 | Cc1cccc2cc(CN(C)CCN(C)C)c(N3CCNC(=O)C3)nc12 | inhibition below the basal level |  | 660 | 6.2 ± 0.13 |  |  | 1970 | 5.71 ± 0.17 | antagonist hits | not | 
4 | Cc1ccc(C2(O)CCN(c3nc(C)nc4ccsc34)CC2)nc1 |  | new antagonists | 6600 | 5.2 ± 0.37 |  |  | 6070 | 5.22 ± 0.09 |  |  | unable to lower the binding of [^3H]N-α-methylhistamine to non-specific binding levels
